Results: article PMC10298982, “Stability Characterization of the Novel Anti-Cancer HM-10/10 HDL-Mimetic Peptide” (International Journal of Molecular Sciences, 2023)

Protein sequences, listed by entry. Tags and fused reporters are not part of them.
UniProt P33261, whole entry: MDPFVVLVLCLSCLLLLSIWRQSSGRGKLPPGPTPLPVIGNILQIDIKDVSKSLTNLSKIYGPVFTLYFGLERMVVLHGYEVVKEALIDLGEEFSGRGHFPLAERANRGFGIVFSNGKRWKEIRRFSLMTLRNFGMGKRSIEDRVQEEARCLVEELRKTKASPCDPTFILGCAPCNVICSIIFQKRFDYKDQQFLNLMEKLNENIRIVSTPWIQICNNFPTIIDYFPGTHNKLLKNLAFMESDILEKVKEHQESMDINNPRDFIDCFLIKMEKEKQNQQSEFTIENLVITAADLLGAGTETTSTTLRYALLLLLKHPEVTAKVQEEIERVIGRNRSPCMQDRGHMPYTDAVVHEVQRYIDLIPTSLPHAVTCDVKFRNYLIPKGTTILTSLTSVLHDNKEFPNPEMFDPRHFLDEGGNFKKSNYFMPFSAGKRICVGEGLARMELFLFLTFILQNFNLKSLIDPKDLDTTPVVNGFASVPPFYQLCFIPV

Target: CYP2C19 (Homo sapiens, UniProt P33261)
Test: CYP450 time-dependent inhibition, CYP2C19, pooled human liver microsomes
Settings: read-out: IC50 (µM) PI + NADPH; Mephenytoin (2C19); PI + NADPH (30-min preincubation)

- IC50: 2.54 µM
Compound: COc1ccc2[nH]c([S+]([O-])Cc3ncc(C)c(OC)c3C)nc2c1 (stereo not shown) [Omeprazole, omeprazole]
